Compounds with a hit are over-represented: about 0.51% of the library has one in this group of screens.
Integrin act MD – qHTS for Activators of Integrin-Mediated Alleviation for Muscular Dystrophy; alpha7betagal myoblasts, beta-gal FDG fluorescence, 48 h; Potency, µM (series often up to 38.3 µM), inactives show top-dose activation, most hits filed as activators; 0.064% of 350,000 active;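 also: potency is read from the fitted curve at half-maximal effect; 100% = response of the positive control SU9516; nearly all actives have a fitted effect of over 60% in size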
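alpha7betagal+/- myoblasts (passage 13, 250/well) treated 48 h at 37C with compounds at 1:260 dilution of DMSO stock. Lysed, then beta-galactosidase activity read as FDG fluorescence (ex 480/em 540) after 30 min, with pre-read for autofluorescence.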
Mm-Cpn inhibitor – Inhibitors of TCP-1 ring complex (TRiC) of Methanococcus maripaludis (MmCpn): qHTS. Potency, µM (highest dose often 76.9 µM), inactives show top-dose activity, negative = inhibition, usual class: inhibitors. purified Mm-Cpn ATPase, ADP Transcreener TR-FRET. 0.031% of 330,000 active. Chaperonin Mm-Cpn (Methanococcus maripaludis); also: potency is read from the fitted curve at half-maximal effect; % is scaled to controls: 0 for no effect and ±100 for the full control effect; nearly all actives have a fitted effect of over 80% in size
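Purified archaeal Mm-CPN (25nM final) preincubated 10 min at 37degC with compound, then 10uM ATP for 30 min at 37degC; ADP measured by HTRF Transcreener TR-FRET; buffer 30 mM TRIS pH 7.4, 100mM KCl, 5mM MgCl2, 1mM DTT.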
CCT chaperon mod – High-Throughput Screening for Modulators of Cytosolic Chaperonin Activity. purified chaperonin ATPase assay, HTRF ADP detection, 30 min. activity change, % (concentration not given with the values), hits read low. 0.3% of 360,000 active. AID 651819, 2012; in the data active = activity change below about -30%; also: % is scaled to controls: 0 for no effect and ±100 for the full control effect
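ATPase activity: ADP formed was measured by HTRF Transcreener (665/615 nm ratio) after 30 min at 37 deg C with 10 uM ATP. Compounds screened at one 76 uM concentration against 40 or 20 nM TRiC in Tris pH 7.4/KCl/MgCl2/DTT buffer.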
Rango-impB inh – qHTS Assay for Inhibitors of Rango (Ran-regulated importin-beta cargo) - Importin beta complex formation; Importin subunit beta-1 (Homo sapiens), Q14974; Rango CFP/YFP FRET sensor + importin beta, 45 min; Potency, µM (titrated, usually from 92.2 µM), inactives show at the top dose inhibition of complex formation; 0.031% of 340,000 active; AID 540263, 2011; calls by dose curve;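 also: potency is read from the fitted curve at half-maximal effect; 0% = DMSO wells and 100% = buffer wells lacking importin beta; nearly all actives have a fitted effect of over 15% in size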
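FRET biosensor Rango (snurportin 1 IBB between N-terminal EYFP and C-terminal Cerulean), 50 nM in PBS/1 mM DTT/0.02% Tween-20/0.1% BSA, preincubated 5 min RT with compound; 0.125 microM importin beta added, 45 min RT, CFP/YFP FRET ratio read.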
Rango dissoc inh – qHTS Assay for Inhibitors of RanGTP induced Rango (Ran-regulated importin-beta cargo) - Importin beta complex dissociation; AID 540253, 2011; Biochemical FRET Rango-importin beta, RanGTP-induced dissociation; Potency, µM (doses to about 46.1 µM), inactives show top-dose activity change, negative = inhibition; Snurportin-1 (Homo sapiens) + GTP-binding nuclear protein Ran (Homo sapiens) + Importin …; 0.071% of 340,000 active; calls by dose curve; also: potency is read from the fitted curve at half-maximal effect; % of control where 0% means no effect; nearly all actives have a fitted effect of over 45% in size
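Rango/importin beta premix (0.1/0.25 uM final), PBS + 1 mM DTT + 0.02% Tween-20 + 0.1% BSA; cpd 5 min RT; FRET pre-read; + RanGTP-RCC1 (0.6 uM Ran, 2 mM GTP, 0.2 uM RCC1); 45 min RT; FRET post-read, ex 430, em 486/530 nm.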
An asterisk follows results filed as active; u = inconclusive; x = no result given; [ ] = remark or other dose. Unless noted, calls follow the shape of the dose curve; as a rule, active = well fitted curve in the direction sought with a large enough effect; inconclusive = small, poorly fitted or top-dose-only effect, or another doubt; inactive = no such curve, though single readings can be large; an effect the other way counts as inactive or inconclusive.

Sequences of proteins named here, by UniProt entry; tags and fusion partners are left off.
Importin subunit beta-1 (Homo sapiens), Q14974, UniProt Q14974, whole entry, looked up: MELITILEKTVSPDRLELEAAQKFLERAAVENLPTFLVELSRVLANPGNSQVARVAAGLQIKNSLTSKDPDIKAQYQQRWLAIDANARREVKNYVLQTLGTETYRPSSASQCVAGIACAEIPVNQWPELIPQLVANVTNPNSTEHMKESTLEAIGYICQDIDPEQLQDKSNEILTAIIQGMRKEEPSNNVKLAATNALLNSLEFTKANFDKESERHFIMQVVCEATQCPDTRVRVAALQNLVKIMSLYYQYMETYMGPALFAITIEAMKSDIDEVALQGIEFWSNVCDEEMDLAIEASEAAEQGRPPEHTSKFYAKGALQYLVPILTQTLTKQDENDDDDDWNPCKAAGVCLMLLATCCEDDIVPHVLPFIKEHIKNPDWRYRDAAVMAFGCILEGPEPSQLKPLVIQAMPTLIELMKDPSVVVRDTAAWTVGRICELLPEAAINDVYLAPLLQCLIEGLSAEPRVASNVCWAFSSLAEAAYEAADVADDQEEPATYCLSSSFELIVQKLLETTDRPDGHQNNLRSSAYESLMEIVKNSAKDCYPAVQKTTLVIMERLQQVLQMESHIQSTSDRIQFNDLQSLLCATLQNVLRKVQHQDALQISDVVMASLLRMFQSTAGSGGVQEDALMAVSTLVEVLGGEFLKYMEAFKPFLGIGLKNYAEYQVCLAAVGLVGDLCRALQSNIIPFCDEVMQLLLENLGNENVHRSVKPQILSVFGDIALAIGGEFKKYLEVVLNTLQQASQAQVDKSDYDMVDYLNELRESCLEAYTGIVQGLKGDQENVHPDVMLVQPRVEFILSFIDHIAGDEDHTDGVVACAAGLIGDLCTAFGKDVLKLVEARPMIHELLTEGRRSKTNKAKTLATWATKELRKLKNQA

[1] O=C(Nc1cccc([N+](=O)[O-])c1)Nc1cccc([N+](=O)[O-])c1
[2] COc1cc(NC(=O)Nc2cccc([N+](=O)[O-])c2)cc(OC)c1
[3] COc1ccccc1NC(=O)Nc1cccc(NC(C)=O)c1
[4] COc1ccc(NC(=O)Nc2cccc(NC(C)=O)c2)c(OC)c1
[5] COc1ccc([C@]23Cc4ccccc4C(O2)C2=C(CC(C)(C)CC2=O)O3)cc1

Assay by compound,1,2,3,4,5
Integrin act MD,-7%,-17%,0%,10%,x
Mm-Cpn inhibitor,u,-1%,1%,1%,-11%[15.4 µM]
CCT chaperon mod,0,-53*,0,-43*,x
Rango-impB inh,-2%,-4%,u,3%,x
Rango dissoc inh,-6%,0%,13%,1%,x

[6] O=C(c1ccc(S(=O)(=O)Cc2cc(F)ccc2F)c([N+](=O)[O-])c1)N1CCOCC1
[7] COc1ccc(NC(=O)CC2Nc3ccccc3NC2=O)c([N+](=O)[O-])c1 (stereo not drawn)
[8] COc1ccccc1NC(=O)CC1Nc2ccccc2NC1=O (stereo not drawn)
[9] Cc1ccc(N)cc1O
[10] CCN(CC)CCCNC(=O)c1nn(-c2cccc(OC)c2)c(=O)c2ccccc12

Assay by compound,6,7,8,9,10
Integrin act MD,-51%,-14%,-20%,x,-5%
Mm-Cpn inhibitor,x,0%,-2%,0%,-1%
CCT chaperon mod,-2,-2,-1,2,-76*
Rango-impB inh,x,-1%,u,u,1%
Rango dissoc inh,x,-9%,12µM*,23µM*,-13%

Single values from the list.
compound 10 @ Mm-Cpn inhibitor = -1%
compound 9 @ Mm-Cpn inhibitor = 0%
compound 7 @ Rango-impB inh = -1%

(continued)
[11] Cc1cc(N2CCC(C(=O)Nc3ccc(F)cc3)CC2)nc(-c2ccccc2)n1
[12] COc1ccc(NC(=O)C2CCN(c3cc(C)nc(-c4ccccc4)n3)CC2)cc1
[13] CCn1nc(NC(C)=O)c2cc3ccc(C)cc3nc21
[14] CCn1nc(NC(=O)C(C)C)c2cc3ccc(C)cc3nc21
[15] COC(=O)c1cnn(-c2ccc(C(=O)Nc3ccc(C(C)=O)cc3)cc2)c1N

Assay by compound,11,12,13,14,15
Integrin act MD,-20%,14%,-1%,2%,x
Mm-Cpn inhibitor,-2%,0%,-6%,1%,0%
CCT chaperon mod,-1,-64*,1,-2,x
Rango-impB inh,-6%,0%,u,u,x
Rango dissoc inh,6%,28%,9.2µM*,-38%,x

[16] Oc1ccc2ccccc2c1CNc1ccc2ccccc2c1
[17] Oc1ccc2ccccc2c1CNc1ccccc1
[18] COc1ccc(OC)c(NC(=O)Nc2nc(C(N)c3ccccc3Cl)cs2)c1 (stereo not drawn)
[19] COc1ccc(C2C=C(C)Nc3nc(SC)nn32)cc1 (stereo not drawn)
[20] CC1=CC(c2ccccc2)n2nc(N)nc2N1 (stereo not drawn)

Assay by compound,16,17,18,19,20
Integrin act MD,-16%,0%,x,-9%,7%
Mm-Cpn inhibitor,x,x,x,-3%,x
CCT chaperon mod,-37*,-4,1,-2,-87*
Rango-impB inh,0%,u,x,u,u
Rango dissoc inh,-11%,-1%,x,18µM*,u

[21] O=C(Cc1ccccc1)NN1C(=O)/C(=C/c2ccc(C(=O)O)cc2)SC1=S
[22] CCOc1ccc(-c2cc(C(=O)Nc3ccc(F)cc3)[nH]n2)c(C)c1
[23] CCN(CC)CCn1c2c(c(SCC(=O)Nc3ccccc3Cl)nc1=O)CCC2
[24] CCN(CC)CCn1c2c(c(SCC(=O)Nc3cccc4ccccc34)nc1=O)CCC2
[25] CCc1nc2c(OCc3cccc(Cl)c3)cccn2c1N(C)C(=O)C1CC1

Assay by compound,21,22,23,24,25
Integrin act MD,10%,x,-16%,-10%,x
Mm-Cpn inhibitor,3%,x,0%,3%,x
CCT chaperon mod,-35*,-4,-34*,1,-5
Rango-impB inh,0%,x,3%,0%,x
Rango dissoc inh,53%,x,4%,-2%,x

A different layout for part of the listing above:
nr | molecule | Integrin act MD | Mm-Cpn inhibitor | CCT chaperon mod | Rango-impB inh | Rango dissoc inh
18 | COc1ccc(OC)c(NC(=O)Nc2nc(C(N)c3ccccc3Cl)cs2)c1 (stereo not drawn) | x | x | 1 | x | x
19 | COc1ccc(C2C=C(C)Nc3nc(SC)nn32)cc1 (stereo not drawn) | -9% | -3% | -2 | u | 18µM*
20 | CC1=CC(c2ccccc2)n2nc(N)nc2N1 (stereo not drawn) | 7% | x | -87* | u | u

The results go on.
[26] COc1ccc(C2CC(c3ccccc3)=NN2C(=S)Nc2ccccc2)cc1 (stereo not drawn)
[27] CC(=O)c1cccc(S(=O)(=O)N2CCCC(c3nc4c(nnn4Cc4cccc(Cl)c4)c(=O)[nH]3)C2)c1 (stereo not drawn)
[28] O=c1[nH]c(C2CCCN(S(=O)(=O)c3ccccc3)C2)nc2c1nnn2Cc1cccc(Cl)c1 (stereo not drawn)
[29] O=C(N/N=C/C=C/c1ccc([N+](=O)[O-])cc1)c1cccs1
[30] O=C(CC1C(=O)NCCN1C/C=C/c1ccccc1)NCCc1ccncc1 (stereo not drawn)

Assay by compound,26,27,28,29,30
Integrin act MD,1%,2%,4µM*,-1%,-11%
Mm-Cpn inhibitor,50µM*,0%,-1%,1%,1%
CCT chaperon mod,-9,1,0,2,-33*
Rango-impB inh,u,-3%,0%,26µM*,-2%
Rango dissoc inh,-9%,-22%,5%,-6%,-7%

[31] CCCNC(=O)C1(C)CCN(C(=O)c2cc(F)cc(F)c2)C1 (stereo not drawn)
[32] NC(=O)C1CCN(C(=O)CN2C(=O)c3ccccc3S2(=O)=O)CC1
[33] CC1CCN(C(=O)CN2C(=O)c3ccccc3S2(=O)=O)CC1
[34] O=C(O)c1ccc2c(c1)C(=O)N([C@H](Cc1ccc3ccccc3c1)C(=O)O)C2=O
[35] Cc1ccccc1-c1cnc(C(O)c2cccc(C)c2C)[nH]1 (stereo not drawn)

Assay by compound,31,32,33,34,35
Integrin act MD,x,12%,-1%,x,x
Mm-Cpn inhibitor,x,-1%,0%,-23%,x
CCT chaperon mod,0,-41*,0,x,0
Rango-impB inh,x,3%,1%,x,x
Rango dissoc inh,x,-6%,10%,x,x

[36] COc1cc2sc(-c3ccc(S(C)(=O)=O)cc3)c(C(=O)NCc3ccc(C)o3)c2cc1OC
[37] CC(C)N(C(=O)Cn1c(-c2ccccc2Cl)nc2ccccc21)c1ccccc1
[38] CCc1cccc(CC)c1NC(=O)Cn1c(-c2ccccc2Cl)nc2ccccc21
[39] COc1ccc(CN2C(=O)c3cccnc3C2Nc2ccc(OC)c(Cl)c2)cc1 (stereo not drawn)
[40] CC1C(=O)N(Cc2cn(Cc3ccco3)nn2)CCS(=O)(=O)N1Cc1ccc(-c2ccccc2C(F)(F)F)cc1 (stereo not drawn)

Assay by compound,36,37,38,39,40
Integrin act MD,-34%,5%,-12%,-7%,x
Mm-Cpn inhibitor,50µM*,2%,2%,-11%,x
CCT chaperon mod,0,-55*,-2,-71*,0
Rango-impB inh,-2%,3%,3%,-4%,x
Rango dissoc inh,-3%,5%,2%,-9%,x

[41] C(=C\c1nccc2c1[nH]c1ccccc12)/c1ccccc1
[42] Fc1ccc(/C=C\c2nccc3c2[nH]c2ccccc23)cc1
[43] Cc1ccc(S(=O)(=O)/C(C#N)=C/c2c(N3CCC(C(N)=O)CC3)nc3ccccn3c2=O)cc1
[44] Cc1ccc(S(=O)(=O)/C(C#N)=C/c2c(N3CCC(C(N)=O)CC3)nc3c(C)cccn3c2=O)cc1
[45] COCC(C)NCc1ccccc1C (stereo not drawn)
[46] CCC1(CC)NC(=O)N(CC(=O)Nc2ccc(C)cc2C)C1=O

Assay by compound,41,42,43,44,45,46
Integrin act MD,-50%,-43%,4%,-14%,15%,0%
Mm-Cpn inhibitor,-3%,-3%,-1%,1%,0%,1%
CCT chaperon mod,-1,2,-3,0,-4,-2
Rango-impB inh,u,u,u,u,18µM*,-3%
Rango dissoc inh,16µM*,u,13µM*,u,21%,-1%
